Molecular target: split ligand binding domain of estrogen receptor beta (ERβ) (Homo sapiens, UniProt Q92731)
Details: HEK293T cells, increasing ligand concentration, compared to cells not stimulated; FIG. 2C

By UniProt entry, the sequences of proteins in these tests, tags left out. Where a name states a change or a piece, a line headed by the entry shows the natural chain unless it says otherwise.
UniProt Q92731: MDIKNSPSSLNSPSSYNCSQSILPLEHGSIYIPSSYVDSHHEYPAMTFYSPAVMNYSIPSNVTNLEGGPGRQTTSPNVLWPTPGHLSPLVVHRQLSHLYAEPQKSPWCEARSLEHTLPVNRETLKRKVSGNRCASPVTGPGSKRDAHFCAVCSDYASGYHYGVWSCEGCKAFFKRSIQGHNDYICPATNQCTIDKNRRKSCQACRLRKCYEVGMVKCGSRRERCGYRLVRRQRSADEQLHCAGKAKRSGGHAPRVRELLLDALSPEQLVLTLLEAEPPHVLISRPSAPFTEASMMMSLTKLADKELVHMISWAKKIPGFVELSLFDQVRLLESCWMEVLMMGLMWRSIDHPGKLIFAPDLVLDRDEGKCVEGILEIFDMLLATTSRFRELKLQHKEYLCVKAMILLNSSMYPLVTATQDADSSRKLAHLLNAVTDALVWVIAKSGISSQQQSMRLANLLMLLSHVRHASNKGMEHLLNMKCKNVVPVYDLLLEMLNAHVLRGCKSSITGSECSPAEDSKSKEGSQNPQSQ

SMILES: C[C@]12CC[C@@H]3c4ccc(O)cc4CC[C@H]3[C@@H]1CC[C@@H]2O [17β-estradiol]
- firefly luciferase activity (dimerization of split ERβ CISPA sensor): an increase in firefly luciferase activity is observed
